Laboratory results: patent US6589950B1, “Purine derivatives inhibitors of tyrosine protein kinase SYK” (Novartis AG, priority 1999, dated 2003)

Target: syk kinase (Homo sapiens, UniProt P43405)
Assay: syk kinase peptide phosphorylation scintillation proximity assay (SPA)
Details: read-out: IC50 (concentration at which 50% inhibition of syk kinase phosphorylation occurs), biotin-EDPDYEWPSA substrate, 33P-ATP, SPA beads, room temperature 30 minutes

SMILES	IC50	further results
c1nc2c(NC3CC3)nc(Nc3ccc4[nH]ncc4c3)nc2[nH]1	–	IC50 (tested form: hydrochloride): 3 nM
CC(C)Nc1nc(Nc2ccc(S(=O)(=O)N(C)C)cc2)nc2[nH]cnc12	–	IC50 (tested form: TFA salt): 5 nM
c1cnc2ccc(Nc3nc(Nc4ccc5cn[nH]c5c4)c4nc[nH]c4n3)cc2c1	4.5 nM	–
CCC(=O)N(C)c1ccc(Nc2nc(NC3CC3)c3nc[nH]c3n2)cc1	6 nM	–

Where two headings read alike, the source gives them in different places.
